The assay has as its target Human platelet COX I (Homo sapiens, UniProt P23219). Briefly: COX I inhibition in human platelets (PGE2 EIA).

The chains behind the UniProt entries cited, without tags or fusion partners. Residues count along the entry.
UniProt P23219, 24-599: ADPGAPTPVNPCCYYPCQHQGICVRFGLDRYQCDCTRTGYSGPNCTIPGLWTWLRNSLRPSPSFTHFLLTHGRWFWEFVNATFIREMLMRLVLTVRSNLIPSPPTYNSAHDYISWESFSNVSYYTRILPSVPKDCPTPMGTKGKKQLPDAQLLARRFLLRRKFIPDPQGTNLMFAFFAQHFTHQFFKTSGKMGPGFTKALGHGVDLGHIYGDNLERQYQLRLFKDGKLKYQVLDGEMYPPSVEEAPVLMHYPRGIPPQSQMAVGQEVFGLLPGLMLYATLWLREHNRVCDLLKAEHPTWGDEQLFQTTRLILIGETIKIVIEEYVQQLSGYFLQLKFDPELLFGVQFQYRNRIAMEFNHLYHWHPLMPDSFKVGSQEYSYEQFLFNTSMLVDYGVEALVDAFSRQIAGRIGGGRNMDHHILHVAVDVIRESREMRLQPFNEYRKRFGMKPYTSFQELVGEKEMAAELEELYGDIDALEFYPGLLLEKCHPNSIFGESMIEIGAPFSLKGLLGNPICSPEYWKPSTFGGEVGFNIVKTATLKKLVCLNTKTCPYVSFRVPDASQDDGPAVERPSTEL

In the case of `O=C(O)c1cccnc1Nc1cccc(C(F)(F)F)c1` [Niflumic acid], the IC50 (usually the concentration at which inhibition is half-maximal) was more than 10 µM.

The values above are taken from patent US20090155395A1 (SAGITTARIUS LIFE SCIENCE CORP., priority 2007, published 2009).
